Source: patent publication US10758545B2, “Methods to treat neurological diseases” (UNIVERSITY OF SOUTHERN CALIFORNIA, priority 2015, dated 2020)
“Also recorded” adds a separate entry of the source.

Tested on: C9ORF72 patient iMNs
Experiment: induced motor neuron (iMN) survival assay, glutamate treatment
Format: cell-based, human
Details: excess glutamate (10 μM, 12 hrs); longitudinal tracking, log-rank
Protocol: For the glutamate treatment conditions, 10 μM glutamate was added to the culture medium on day 17 and removed after 12 hrs. Cells were then maintained in N3 medium with neurotrophic factors without RepSox. For the glutamate treatment conditions with glutamate receptor antagonists, cultures were co-treated with 10 μM MK801 and CNQX, and 2 μM Nimodipine during the 12 hr glutamate treatment. The antagonists were maintained for the remainder of the experiment. For the neurotrophic factor withdrawal condition, BDNF, GDNF, and CNTF were removed from the culture medium starting at day 17. Longitudinal tracking was performed by imaging neuronal cultures in a Nikon Biostation CT or Molecular Devices ImageExpress once every 24 hrs starting at day 17. Tracking of neuronal survival was performed using SVcell 2.0 (DRVision Technologies).

6-Amino-N-(3-(4-(4-morpholinyl)pyrido[3′2′:4,5]furo[3,2-d]pyrimidin-2-yl)phenyl)-3-pyridinecarboxamide [YM201636]
survival of C9ORF72 patient iMNs: significantly increased the survival; also recorded: rescued patient iMN survival
